Values quoted from earlier work as cited in US20240254115A1 (ACONDICIONAMIENTO TARRASENSE, priority 2021, published 2024).

Sequences of proteins named here, by UniProt entry; tags and fusion partners are left off.
UniProt Q99720, whole entry: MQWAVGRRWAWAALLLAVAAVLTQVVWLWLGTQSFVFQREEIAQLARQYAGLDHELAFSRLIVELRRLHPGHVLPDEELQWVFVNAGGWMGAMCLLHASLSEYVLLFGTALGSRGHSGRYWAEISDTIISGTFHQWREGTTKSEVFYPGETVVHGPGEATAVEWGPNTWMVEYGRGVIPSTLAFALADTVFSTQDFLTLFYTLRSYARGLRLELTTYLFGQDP

Biological target: sigma-1 (σ1) site (Homo sapiens, UniProt Q99720)
Details: background statement; cited from earlier work

(+)-SKF-10047
affinity for the sigma-1 (σ1) site: nanomolar affinity
